# AlphaSeq binding of Ab-91 heavy chain variants to a spike HR2 peptide

Reference: Engelhart et al. 2022, doi:10.1038/s41597-022-01779-4. File: FLAb, binding data.

Binding partner: SARS-CoV-2 spike HR2 peptide, sequence PDVDLGDISGINAS.

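Phage display of a naive human antibody library on the peptide gave the parent. Variants in AAYL51 differ from the parent at up to three CDR positions; double and triple changes were sampled at random. AlphaSeq pools MATa yeast showing the antibodies with MATalpha yeast showing the peptide. After mating in shaken culture at 30 °C for 16 h, diploids were selected and their barcode pairs sequenced. Read counts were normalised to the haploid input and turned into Kd by a linear fit to BCL2-family pairs of known affinity, for each replicate. There are three technical replicates.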

Parent scFv Ab-91: VL joined to VH by three GGGGS repeats. Changes lie in the heavy chain CDRs alone.
VL: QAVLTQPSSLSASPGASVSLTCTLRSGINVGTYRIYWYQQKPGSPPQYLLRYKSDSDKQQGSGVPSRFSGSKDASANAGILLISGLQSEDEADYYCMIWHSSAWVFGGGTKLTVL
VH: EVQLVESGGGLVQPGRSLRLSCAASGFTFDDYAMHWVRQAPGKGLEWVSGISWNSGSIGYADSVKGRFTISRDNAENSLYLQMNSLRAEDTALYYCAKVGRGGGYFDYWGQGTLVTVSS

Each variant's VH is given in full. The read-out is the apparent dissociation constant on a log10 scale (nM): the lower, the stronger. Replicates are averaged; those with no signal do not enter the mean. "n.d." means that the variant was in the library but no mating with the target was seen in that replicate; the authors take this as a sign of poor binding, and no number exists. Parent in this assay: reference entry 1.86, copy in this library 0.88. Background: pairings of library AAYL51 with three empty control strains gave a value in 21% of cases (median 4.54, 5th percentile 3.26). Values in that range, when seen in few replicates, are hard to tell from nonspecific mating. For each scFv, signals with the empty controls are counted beside the result, with their mean in brackets.

VH	log10 Kd (nM) by replicate	mean log10 Kd (nM)	signal with controls
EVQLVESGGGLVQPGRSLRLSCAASGFFFDDYAMSWVRQAPGKGLEWVSGISWNSGSIGYADSVAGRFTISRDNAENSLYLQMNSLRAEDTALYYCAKVGRGGGYFDYWGQGTLVTVSS	4.09 4.79 5.55	4.81	4 of 9 (4.91)
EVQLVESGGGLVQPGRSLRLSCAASGFTFDDYAMHWVRQAPGKGLEWVSGIRWNSGSIGYADSVKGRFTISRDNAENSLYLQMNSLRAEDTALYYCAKVGRGGGYFDDWGQGTLVTVSS	n.d. n.d. n.d.	n.d.	0 of 9
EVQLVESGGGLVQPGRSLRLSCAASIFTFDDYARHWVRQAPGKGLEWVSGISWNSGSIRYADSVKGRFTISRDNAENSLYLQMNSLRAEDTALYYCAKVGRGGGYFDYWGQGTLVTVSS	n.d. 3.50 n.d.	3.50	2 of 9 (4.52)
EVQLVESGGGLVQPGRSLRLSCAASGFTFDDYAMHWVRQAPGKGLEWVSGISWNSGPIGYACSVKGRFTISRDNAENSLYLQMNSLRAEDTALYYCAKVGPGGGYFDYWGQGTLVTVSS	3.94 5.38 n.d.	4.66	0 of 9
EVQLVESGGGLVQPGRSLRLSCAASGFTGDDYAMHWVRQAPGKGLEWVSGISWNSGSIGYADNVKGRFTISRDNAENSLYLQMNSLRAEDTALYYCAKVGRGGGWFDYWGQGTLVTVSS	n.d. 6.60 5.53	6.07	6 of 9 (4.77)
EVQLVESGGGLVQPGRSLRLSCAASGFTFDDYAMHWVRQAPGKGLEWVSPISWNIGSIRYADSVKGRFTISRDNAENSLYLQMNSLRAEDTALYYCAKVGRGGGYFDYWGQGTLVTVSS	n.d. n.d. n.d.	n.d.	0 of 9
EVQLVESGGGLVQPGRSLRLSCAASGFTFDIYNMHWVRQAPGKGLEWVSGISWNSGSIGYADSVQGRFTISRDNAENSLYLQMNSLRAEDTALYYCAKVGRGGGYFDYWGQGTLVTVSS	n.d. 3.96 n.d.	3.96	3 of 9 (4.23)
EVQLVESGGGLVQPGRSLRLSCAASGFTFDDYAMHWVRQAPGKGLEWVSGISWNFGSIGYADSVKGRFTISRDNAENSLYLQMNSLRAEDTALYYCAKVGKGGGYTDYWGQGTLVTVSS	n.d. n.d. n.d.	n.d.	3 of 9 (3.82)
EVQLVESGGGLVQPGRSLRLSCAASGFTFDDYAMHWVRQAPGKGLEWVSGISWNSGSIGYADSVKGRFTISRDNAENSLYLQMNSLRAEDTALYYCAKVGRGGGYFDHWGQGTLVTVSS	1.21 1.20 0.82	1.08	0 of 9
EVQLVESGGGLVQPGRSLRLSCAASGFTFDDYAMHWVRQAPGKGLEWVSGISWNSGSITYADSVTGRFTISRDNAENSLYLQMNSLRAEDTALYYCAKVGRGGGYFDSWGQGTLVTVSS	5.33 4.15 n.d.	4.74	5 of 9 (4.93)
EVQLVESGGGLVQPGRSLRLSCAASEFTYDDYAMHWVRQAPGKGLEWVSGISWNSGSIGYADSVKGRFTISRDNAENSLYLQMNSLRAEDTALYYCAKPGRGGGYFDYWGQGTLVTVSS	n.d. n.d. 4.79	4.79	3 of 9 (4.74)
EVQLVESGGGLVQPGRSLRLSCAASGFTFDDYAAHWVRQAPGKGLEWVSGISKNSGSILYADSVKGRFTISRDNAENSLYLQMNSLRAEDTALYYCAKVGRGGGYFDYWGQGTLVTVSS	4.03 n.d. 4.37	4.20	2 of 9 (3.77)
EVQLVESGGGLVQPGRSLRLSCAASGFTFDDYAMHWVRQAPGKGLEWVSGISWNSWSIGYADSVKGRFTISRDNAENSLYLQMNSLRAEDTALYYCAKVGCCGGYFDYWGQGTLVTVSS	4.17 n.d. n.d.	4.17	4 of 9 (4.86)
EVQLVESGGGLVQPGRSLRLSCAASHFTFDDYAMHWVRQAPGKGLEWVSGISWNSGSIGYADQVKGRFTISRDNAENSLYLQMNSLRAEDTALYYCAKVGRGGVYFDYWGQGTLVTVSS	n.d. n.d. n.d.	n.d.	2 of 9 (4.30)
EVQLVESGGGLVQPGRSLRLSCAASGFTFDDYAMQWVRQAPGKGLEWVSGISANSGSIGYADSDKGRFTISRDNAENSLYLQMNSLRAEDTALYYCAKVGRGGGYFDYWGQGTLVTVSS	n.d. n.d. n.d.	n.d.	1 of 9 (3.39)
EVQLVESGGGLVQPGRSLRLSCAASGFTFDDYGMHWVRQAPGKGLEWVSGISWNQGSIGYADIVKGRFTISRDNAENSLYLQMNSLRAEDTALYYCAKVGRGGGYFDYWGQGTLVTVSS	1.69 1.66 1.35	1.57	2 of 9 (4.74)

Picked from the list: the 2 lowest averages where every replicate gave a value.

{"VH": "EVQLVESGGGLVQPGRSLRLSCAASGFTFDDYAMHWVRQAPGKGLEWVSGISWNSGSIGYADSVKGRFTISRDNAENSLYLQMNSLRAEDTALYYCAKVGRGGGYFDHWGQGTLVTVSS", "log10 Kd (nM) by replicate": "1.21 1.20 0.82", "mean log10 Kd (nM)": "1.08", "signal with controls": "0 of 9"}
{"VH": "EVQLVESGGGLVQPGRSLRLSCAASGFTFDDYGMHWVRQAPGKGLEWVSGISWNQGSIGYADIVKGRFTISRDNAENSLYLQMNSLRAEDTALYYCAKVGRGGGYFDYWGQGTLVTVSS", "log10 Kd (nM) by replicate": "1.69 1.66 1.35", "mean log10 Kd (nM)": "1.57", "signal with controls": "2 of 9 (4.74)"}